IC50 data for one compound are collected here from BindingDB's records for doi:10.1021/acsmedchemlett.7b00103 (Genentech, 2017).

Protein sequences, listed by entry. Tags and fused reporters are not part of them. Lines headed by an entry give the natural chain unless they say otherwise; changes in a name come on top.
UniProt P35991: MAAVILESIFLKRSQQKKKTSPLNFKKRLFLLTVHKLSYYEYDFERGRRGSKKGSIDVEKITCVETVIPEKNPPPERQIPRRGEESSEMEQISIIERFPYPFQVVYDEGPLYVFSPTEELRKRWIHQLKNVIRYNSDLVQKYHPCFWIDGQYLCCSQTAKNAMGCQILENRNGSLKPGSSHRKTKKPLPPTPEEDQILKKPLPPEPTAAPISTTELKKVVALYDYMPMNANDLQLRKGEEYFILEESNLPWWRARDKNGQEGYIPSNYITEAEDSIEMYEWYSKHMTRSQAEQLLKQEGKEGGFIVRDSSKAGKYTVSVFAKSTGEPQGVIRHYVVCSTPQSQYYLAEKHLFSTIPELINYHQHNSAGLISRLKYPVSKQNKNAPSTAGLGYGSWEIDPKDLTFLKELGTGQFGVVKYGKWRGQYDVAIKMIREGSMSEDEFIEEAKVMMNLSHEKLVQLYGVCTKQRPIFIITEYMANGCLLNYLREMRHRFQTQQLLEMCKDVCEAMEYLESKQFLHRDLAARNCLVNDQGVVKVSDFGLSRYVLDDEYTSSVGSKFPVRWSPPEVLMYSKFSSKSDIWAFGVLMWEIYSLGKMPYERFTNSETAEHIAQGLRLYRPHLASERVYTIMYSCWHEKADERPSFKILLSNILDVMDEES

In the assay the target is Tyrosine-protein kinase BTK (Mus musculus, UniProt P35991).

The IC50 is the concentration at which inhibition is half-maximal. Higher therefore signals weaker potency in that assay.

For `Cn1cc(-c2cccc(N3CCc4c(nc5n4CCCC5)C3=O)c2CO)cc(Nc2ccncn2)c1=O`, the concentration for half-maximal inhibition (IC50) is more than 50 µM.
